Sequences of proteins named here, by UniProt entry; tags and fusion partners are left off. Residues count along the entry.
UniProt Q14994, 1-348 isoform 2: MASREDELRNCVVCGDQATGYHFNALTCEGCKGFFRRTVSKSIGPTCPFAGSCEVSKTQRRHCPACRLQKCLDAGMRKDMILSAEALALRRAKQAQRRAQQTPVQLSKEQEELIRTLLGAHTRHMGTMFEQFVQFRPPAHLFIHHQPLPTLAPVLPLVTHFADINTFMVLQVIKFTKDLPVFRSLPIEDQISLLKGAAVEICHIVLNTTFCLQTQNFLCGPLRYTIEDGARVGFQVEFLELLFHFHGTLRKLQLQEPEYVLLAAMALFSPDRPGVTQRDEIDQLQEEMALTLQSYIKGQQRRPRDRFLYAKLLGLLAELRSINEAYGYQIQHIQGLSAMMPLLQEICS
UniProt Q14994, 76-348 isoform 2 limits assumed: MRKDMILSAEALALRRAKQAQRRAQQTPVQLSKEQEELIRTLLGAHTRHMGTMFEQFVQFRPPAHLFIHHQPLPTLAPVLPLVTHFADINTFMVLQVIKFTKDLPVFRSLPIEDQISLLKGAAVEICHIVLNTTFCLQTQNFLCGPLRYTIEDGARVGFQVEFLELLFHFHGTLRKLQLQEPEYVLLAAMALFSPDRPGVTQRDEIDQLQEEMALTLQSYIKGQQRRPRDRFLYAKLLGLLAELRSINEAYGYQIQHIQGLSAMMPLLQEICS
UniProt O35627, whole entry: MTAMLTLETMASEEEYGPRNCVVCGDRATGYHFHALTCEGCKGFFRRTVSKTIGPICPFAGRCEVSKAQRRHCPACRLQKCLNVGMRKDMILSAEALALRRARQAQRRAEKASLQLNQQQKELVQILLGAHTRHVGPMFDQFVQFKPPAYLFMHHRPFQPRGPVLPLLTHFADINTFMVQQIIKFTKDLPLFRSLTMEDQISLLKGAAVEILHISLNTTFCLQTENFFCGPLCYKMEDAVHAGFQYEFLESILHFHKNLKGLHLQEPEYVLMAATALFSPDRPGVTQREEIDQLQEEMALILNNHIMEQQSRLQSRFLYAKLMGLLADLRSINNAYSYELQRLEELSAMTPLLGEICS
UniProt O35627, 86-358 limits assumed: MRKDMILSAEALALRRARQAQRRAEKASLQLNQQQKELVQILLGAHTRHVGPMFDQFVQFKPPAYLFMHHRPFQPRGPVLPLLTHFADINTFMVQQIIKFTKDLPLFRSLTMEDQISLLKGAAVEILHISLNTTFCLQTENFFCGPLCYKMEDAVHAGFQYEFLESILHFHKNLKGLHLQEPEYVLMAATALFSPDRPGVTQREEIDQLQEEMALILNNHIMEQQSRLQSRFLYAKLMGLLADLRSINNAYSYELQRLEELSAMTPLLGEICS

According to patent publication US20020152479A1, “Car modulators: screening and treatment of hypercholesterolemia” (priority 2000, published 2002):

Columns and labels:
[1] = target: GST-CARα ligand binding domain fusion protein (Homo sapiens, UniProt Q14994); assay: Peptide sensor fluorescence polarization assay, GST-CARα ligand binding domain with rhodamine-[…] (SRC-1 peptide); conditions: read-out: GST-CARα EC50; half-maximal concentration of stimulation of peptide sensor assay signal
[2] = target: GST-CARβ ligand binding domain fusion protein (Mus musculus, UniProt O35627); assay: Peptide sensor fluorescence polarization assay, GST-CARβ ligand binding domain; conditions: read-out: GST-CARβ EC50; half-maximal concentration of stimulation of peptide sensor assay signal
CARα = CARα (Homo sapiens, UniProt Q14994); assay: RARE-luciferase reporter gene assay in CV-1 cells with pCMV-CARα; format: cell-based; conditions: 10 μM compound, 50 ng pCMV-CARα
CARβ = CARβ (Mus musculus, UniProt O35627); assay: RARE-luciferase reporter gene assay in CV-1 cells with pCMV-CARβ; format: cell-based; conditions: 10 μM compound, 50 ng pCMV-CARβ

Structure (SMILES): CCOC(=O)N1C2CCC1CC(OC(=O)C(O)(c1ccccc1)c1ccccc1)C2 (stereo not shown)
- EC50 [1]: 257 nM
- EC50 [2]: 15.5 nM
- CMV-CARα, fold increase in normalized luciferase activity over DMSO control (CARα): 1.07
- CMV-CARβ, fold increase in normalized luciferase activity over DMSO control (CARβ): 1.94
